# Binding of CDR-mutated scFvs to a peptide of the spike HR2 region

Source: Engelhart et al. 2022 (doi:10.1038/s41597-022-01779-4), MIT Lincoln Laboratory and A-Alpha Bio; data file from the FLAb repository.

The target is the same throughout: PDVDLGDISGINAS, from the HR2 region of SARS-CoV-2 spike.

The variants keep the light chain, the linker and the frameworks of Ab-14 (scFv order VH, the linker GGGGSGGGGSGGGGS, VL).
VH: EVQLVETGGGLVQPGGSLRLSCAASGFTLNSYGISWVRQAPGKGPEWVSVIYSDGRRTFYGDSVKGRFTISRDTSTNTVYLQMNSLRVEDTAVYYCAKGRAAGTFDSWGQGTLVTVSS
VL: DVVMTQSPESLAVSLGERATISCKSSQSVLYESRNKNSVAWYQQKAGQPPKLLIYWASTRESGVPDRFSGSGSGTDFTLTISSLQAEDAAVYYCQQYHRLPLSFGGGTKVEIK

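The starting antibody came from a phage panning campaign against this peptide. Library AAYL49 holds single substitutions and randomly drawn double and triple substitutions in the CDRs. Affinity was read by AlphaSeq, a pooled yeast mating assay with surface-displayed partners. After mating in shaken culture at 30 °C for 16 h, diploids were selected and their barcode pairs sequenced. Each replicate has its own calibration line, from reference interactions of the BCL2 family. Mating was done three times.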

Positions count from residue 1 of the parent VH; S53Q puts Q in place of S.
Every variant below is changed at R100 of the VH (sequential numbering).
The read-out is the apparent dissociation constant on a log10 scale (nM): the lower, the stronger.
Replicates are averaged; those with no signal do not enter the mean.
"nd" means that the variant was in the library but no mating with the target was seen in that replicate; the authors take this as a sign of poor binding, and no number exists.
Nonspecific signal, from three strains lacking the peptide, appeared in 15% of pairings of library AAYL49, centred on 4.06 (5% of these signals below 2.83); values are not corrected for it.

The variant S53Q R100G showed nd, nd, nd.
The variant L29W G55D R100D showed nd, nd, nd.
The variant I51F S53I R100H showed 5.02, nd, 5.08 (mean 5.05).
The variant L29D S31M R100P showed nd, nd, nd.
The variant Y32H G99K R100W showed nd, nd, nd.
The variant S31N G61L R100F showed 1.65, 1.48, 1.78 (mean 1.64).
The variant F27G G61V R100N showed nd, 1.97, nd.
The variant G55T R100M G103T showed nd, nd, nd.
The variant L29H N30G R100S showed nd, 3.84, 3.94 (mean 3.89).
The variant D62N R100D F105K showed nd, nd, nd.
The variant R100K A102P S107V showed 1.67, 1.76, 1.87 (mean 1.77).
The variant Y60G G61W R100L showed nd, 4.88, nd.
The variant R100L T104M S107M showed 1.09, 1.38, 1.29 (mean 1.25).
The variant G26T I34A R100T showed nd, 4.21, nd.
The variant G61Y R100E F105T showed nd, nd, nd.
The variant D62T S63M R100I showed nd, nd, nd.
The variant Y32W S53E R100V showed nd, nd, 3.93.
The variant N30V R100C G103W showed nd, nd, nd.
The variant D54I G55R R100Q showed nd, nd, nd.
The variant S35P R100H T104N showed nd, nd, nd.
The variant T28A R100M T104I showed 1.40, 1.25, 1.20 (mean 1.28).
The variant S35Q R56Y R100I showed 3.66, 3.44, nd (mean 3.55).
The variant Y32P G61P R100Y showed nd, nd, nd.
The variant T58A Y60H R100E showed nd, 4.14, nd.
The variant S35F R100H A101T showed nd, nd, nd.
The variant Y32H I51S R100I showed nd, nd, nd.
The variant K65V R100Y A102N showed nd, nd, nd.
The variant S63M R100V G103M showed 5.40, nd, nd.
The variant V50N R56S R100S showed 3.70, 3.98, nd (mean 3.84).
The variant D62N R100A T104K showed nd, nd, nd.
The variant T28P R100N showed 0.70, 0.93, 0.84 (mean 0.82).
The variant Y60T R100A G103F showed nd, nd, nd.
The variant G26N G61K R100C showed nd, 3.84, 3.50 (mean 3.67).
The variant G26N S53C R100S showed nd, nd, nd.
The variant Y60P G99H R100T showed nd, nd, 5.08.
The variant F59Y K65N R100E showed 4.35, 2.20, 3.12 (mean 3.23).
The variant Y60L R100K S107V showed 2.35, 2.54, 2.52 (mean 2.47).
The variant I51V R100T showed 1.36, 1.62, 1.50 (mean 1.49).
The variant R57D R100Q A102Y showed 6.19, 3.94, 5.30 (mean 5.14).
The variant G26N G55H R100V showed nd, nd, nd.
The variant V50D I51M R100Q showed nd, nd, nd.
The variant T28L R56K R100E showed 1.55, 1.42, 1.19 (mean 1.39).
The variant F27I T28P R100Y showed 1.39, 1.62, 1.36 (mean 1.46).
The variant V64M R100L A102G showed nd, nd, nd.
The variant G99S R100A T104K showed 0.39, 0.86, 0.53 (mean 0.60).
The variant S31F R100P A102I showed nd, nd, nd.
The variant L29D I34R R100W showed nd, 4.58, nd.
The variant T28F R57V R100P showed nd, nd, nd.

The closing 5 entries, repeated:

For V64M R100L A102G, the assay gave nd, nd, nd.
For G99S R100A T104K, the assay gave 0.39, 0.86, 0.53 (mean 0.60).
For S31F R100P A102I, the assay gave nd, nd, nd.
For L29D I34R R100W, the assay gave nd, 4.58, nd.
For T28F R57V R100P, the assay gave nd, nd, nd.